Biological target: Aplysia californica acetylcholine binding protein (Ac-AChBP) (Aplysia californica)
Assay: crystal structure

Substance “Aplysia californica acetylcholine binding protein (Ac-AChBP) (natural protein)” has a stoichiometry N of 5.
